Data as given in paper PMC3977535, “Design and Synthesis of New Dual Binding Site Cholinesterase Inhibitors: in vitro Inhibition Studies with in silico Docking” (Letters in Drug Design & Discovery, 2014).

Amino acid sequences for entries named in this document (tags omitted). Residues count along the entry.
UniProt P06276, 29-602: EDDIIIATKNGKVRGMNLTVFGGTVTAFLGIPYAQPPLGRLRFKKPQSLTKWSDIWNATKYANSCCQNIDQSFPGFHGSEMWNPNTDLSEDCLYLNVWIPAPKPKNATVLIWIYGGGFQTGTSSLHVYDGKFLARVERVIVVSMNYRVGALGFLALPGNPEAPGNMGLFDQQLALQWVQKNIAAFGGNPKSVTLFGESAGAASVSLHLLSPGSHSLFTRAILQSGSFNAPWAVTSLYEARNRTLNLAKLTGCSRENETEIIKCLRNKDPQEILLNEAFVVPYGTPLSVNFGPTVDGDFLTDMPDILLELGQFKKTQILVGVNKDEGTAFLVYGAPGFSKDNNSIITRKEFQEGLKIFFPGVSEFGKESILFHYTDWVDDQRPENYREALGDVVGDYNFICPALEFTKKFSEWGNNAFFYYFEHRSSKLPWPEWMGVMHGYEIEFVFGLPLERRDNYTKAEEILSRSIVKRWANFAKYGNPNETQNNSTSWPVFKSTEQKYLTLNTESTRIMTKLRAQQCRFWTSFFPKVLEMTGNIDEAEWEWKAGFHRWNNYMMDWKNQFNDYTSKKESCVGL
UniProt P22303, 32-614: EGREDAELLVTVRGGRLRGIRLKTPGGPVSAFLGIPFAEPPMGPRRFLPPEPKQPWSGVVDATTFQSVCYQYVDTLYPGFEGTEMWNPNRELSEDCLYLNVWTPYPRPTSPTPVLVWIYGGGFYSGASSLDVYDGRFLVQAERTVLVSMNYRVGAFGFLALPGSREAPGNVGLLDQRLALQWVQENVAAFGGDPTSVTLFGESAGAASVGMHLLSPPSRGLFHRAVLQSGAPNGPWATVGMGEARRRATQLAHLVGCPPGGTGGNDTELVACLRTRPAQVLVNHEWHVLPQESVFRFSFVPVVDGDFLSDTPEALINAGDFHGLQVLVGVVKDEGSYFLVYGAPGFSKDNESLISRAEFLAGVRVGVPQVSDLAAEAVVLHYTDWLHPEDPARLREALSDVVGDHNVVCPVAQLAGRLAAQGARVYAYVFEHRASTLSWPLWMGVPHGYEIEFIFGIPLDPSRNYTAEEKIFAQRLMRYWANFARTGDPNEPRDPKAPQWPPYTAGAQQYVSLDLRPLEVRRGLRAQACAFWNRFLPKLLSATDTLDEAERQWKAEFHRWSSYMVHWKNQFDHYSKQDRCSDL

What was measured:
[1] = target: T1, BChE (Homo sapiens, UniProt P06276); assay: BChE inhibition assay (Ellman method with slight modifications); format: biochemical; details: 0.5 mM test compound; mean with SEM
T1 construct: purchased Sigma Inc
Procedure: (§1) The AChE and BChE inhibition activity was performed according to the method of Ellman with slight modifications. Total volume of the reaction mixture was 100 µL contained 60 µL Na2HPO4 buffer with concentration of 50 mM and pH 7.7. A 10 µL test compound (0.5 mM per well) was added, followed by the addition of 10 µL enzyme (0.005 unit AChE, 0.5 unit BChE per well, Sigma Inc). […] The reaction was initiated by the addition of 10 µL of 0.5 mM per well substrate (acetylthiocholine iodide or butyrylthiocholine bromide), followed by the addition of 10 µL DTNB (0.5 mM per well). […] Synergy HT (BioTek, USA) 96-well plate reader was used in all experiments. All experiments were carried out with their respective controls in triplicate. […] The percent inhibition was calculated by the help of following equation.
(§2) Inhibition%=Control−Test/Control×100

[2] = target: T2, AChE (Homo sapiens, UniProt P22303); format: biochemical; details: 0.5 mM test compound; mean with SEM
T2 construct: purchased Sigma Inc
Procedure: as §1, §2

Question: `CNC(=O)Oc1ccc2c(c1)[C@]1(C)CCN(C)[C@@H]1N2C` [Eserine, reference compound] was tested. Which “BChE Inhibition, Inhibition (%) at 0.5 mM” value [1] did it give?
Answer: The value was 82.82±1.09%.

Question: And the “AChE Inhibition, Inhibition (%) at 0.5 mM” value [2]?
Answer: Its value is 91.29±1.17%.
